Measurements: article PMC5147862, “The RAS-Effector Interface: Isoform-Specific Differences in the Effector Binding Regions” (PLoS ONE, 2016)

Biological target: T1, HRAS, mGppNHp-bound (human, UniProt P01112 1-189)
T1 construct: human HRAS; Loaded with the fluorescent non-hydrolysable GTP analog mant-GppNHp (mGppNHp); That the RAS proteins are the ones made with pGEX is surmised
Experiment: fluorescence polarisation; MBP-tagged effector domain (0.05-100 μM) titrated to 1 μM RAS-mGppNHp; 50 mM Tris/HCl pH 7.5, 100 mM NaCl, 5 mM MgCl2, 3 mM dithiothreitol, 25°C; quadratic ligand binding equation
Settings: both partners purified

Kd: 3.7 µM
B1: RAS association (RA) domain of PLCε, MBP fusion (domain or fragment, human, UniProt Q9P212 2130-2240, looked up)
chain: LSSEEESFFVQVHDVSPEQPRTVIKAPRVSTAQDVIQQTLCKAKYSYSILSNPNPSDYVLLEEVVKDTTNKKTTTPKSSQRVLLDQECVFQAQSKWKGAGKFILKLKEQVQ
notes: human PLCε, RA domain (RA2), aa 2130-2240; also called PLCε-RA2
